Measured values: PubChem BioAssay AID845 (Columbia University Molecular Screening Center, 2007)
The entries are a selection whose mix differs from that of the whole data set. The source made the active and inactive calls.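 Rule for the calls: active = cell count reduction more than 3 SD above the screen-wide mean (cut at about 70% in these data); inactive = the rest.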

assay: cytotoxicity in IL-1B stimulated HUVEC, primary screen, cytotoxicity control for IL-1B NFkB translocation project, imaging, Hoechst nuclear count, IL-1B stimulus (AID 845); details: HUVEC cell count loss, at 2 µM, stronger effect = higher value;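 note: normalized per plate to untreated control cells as the no-loss baseline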

**Q.** Which cell count reduction does the source give for `N#CC1(Nc2ccccc2)CCN(CCc2ccccc2)CC1` here?
**A.** inactive: -27.6%

**Q.** With `O=C(NCC1(N2CCOCC2)CCCCC1)c1cc(=O)[nH]c2ccccc12` as the compound, how does the cell count reduction read?
**A.** inactive: -5.7%

**Q.** With `CN1CCC(Nc2cccc(F)c2)CC1` as the compound, how does the cell count reduction read?
**A.** inactive: 29.4%

**Q.** With `O=C(OC1CN2CCC1CC2)C1c2ccccc2Oc2ccccc21` (stereo not given) as the compound, how does the cell count reduction read?
**A.** inactive: -30.1%

**Q.** With `O=C(NCC1(N2CCOCC2)CCCCC1)c1cc2ccccc2o1` as the compound, how does the cell count reduction read?
**A.** inactive: -1.9%

**Q.** With `COc1ccc(NC2CCN(CCc3ccccc3)CC2)c(OC)c1` as the compound, how does the cell count reduction read?
**A.** inactive: -8.9%

**Q.** With `CCOc1ncccc1C(=O)NCC1(N2CCOCC2)CCCCC1` as the compound, how does the cell count reduction read?
**A.** inactive: -28%

**Q.** For `CCC(CO)(C(=O)OC1CN2CCC1CC2)c1ccccc1` (stereo not given), which cell count reduction is on record?
**A.** inactive: -33.3%

**Q.** With `N/C(=N\O)c1c(N)no[n+]1[O-]` as the compound, how does the cell count reduction read?
**A.** inactive: -9.6%

**Q.** With `c1ccc(CN2CCC(Nc3ccccc3)CC2)cc1` as the compound, how does the cell count reduction read?
**A.** inactive: 15.7%
